The entries are a selection whose mix differs from that of the whole data set. Some salts and complexes are drawn in separate pieces, as the source files them; their charges need not balance. Active and inactive are the calls of the source.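 The calls were made as follows: active = highest replicate inhibition of at least 50% and at least 75% of replicates reaching 50%; inconclusive = only one of the two criteria met; inactive = both criteria failed.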

The chains behind the UniProt entries cited, without tags or fusion partners.
UniProt Q00535, whole entry, looked up: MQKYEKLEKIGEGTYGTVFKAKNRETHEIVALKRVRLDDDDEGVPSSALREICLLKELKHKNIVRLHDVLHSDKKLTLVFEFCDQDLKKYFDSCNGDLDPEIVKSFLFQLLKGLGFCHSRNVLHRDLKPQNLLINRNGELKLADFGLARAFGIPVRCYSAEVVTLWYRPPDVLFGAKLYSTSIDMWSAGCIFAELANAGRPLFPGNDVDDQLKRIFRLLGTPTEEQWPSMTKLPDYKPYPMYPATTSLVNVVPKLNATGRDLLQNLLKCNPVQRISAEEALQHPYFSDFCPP
UniProt Q15078, whole entry, looked up: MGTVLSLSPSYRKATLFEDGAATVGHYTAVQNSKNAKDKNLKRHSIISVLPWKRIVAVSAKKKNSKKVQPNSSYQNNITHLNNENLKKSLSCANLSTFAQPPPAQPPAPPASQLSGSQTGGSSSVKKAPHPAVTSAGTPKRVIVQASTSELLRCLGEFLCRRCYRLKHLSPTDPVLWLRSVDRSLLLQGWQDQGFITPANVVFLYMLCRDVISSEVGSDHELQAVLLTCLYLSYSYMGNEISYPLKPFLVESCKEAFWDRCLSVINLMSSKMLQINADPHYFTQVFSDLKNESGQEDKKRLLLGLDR

The target of this assay is Cyclin-dependent kinase 5 (Homo sapiens) + Cyclin-dependent kinase 5 activator 1 (Homo sapiens) (UniProt Q00535+Q15078). In words: CDK5/p35 phosphotransfer blockade – biochemical, single concentration, primary screen (AID 488839).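 Also: plate controls were DMSO neutral control for no effect and GW8510 at 10 µM for full effect.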 As to conditions: Recombinant CDK5/p35, ADP-Glo luminescence, 60 min; at 10 µM; hits give high values. In general terms: ADP-Glo first removes unused ATP, then detects ADP through luciferase.
On to `O=[N+]([O-])c1cc([N+](=O)[O-])c(-c2cnn(-c3ccccc3)c2)c([N+](=O)[O-])c1`, for which the inhibition (usually the change of the read-out against control, counted positive when it falls) is inactive: -8.43%.
Consider `Cc1nc2ccc3ccccc3c2s1.O=[N+]([O-])c1cc([N+](=O)[O-])c(O)c([N+](=O)[O-])c1`, for which the inhibition was inactive: 0.962%.
Consider `O=[N+]([O-])c1cc([N+](=O)[O-])c(-n2nnc3ccccc32)c([N+](=O)[O-])c1`, for which the inhibition was inactive: 0.368%.
For `CN1CCCCC1COC(=O)C1(O)c2ccccc2CCc2ccccc21` (centres undefined) the value was inactive: -1.13%; for `COc1ccccc1OP(C)(=O)Nc1c(C)cccc1C` (centres undefined), inactive: -0.781%.
For `CP(=O)(Nc1ccc(SC(F)(F)F)cc1)Oc1ccccc1` (centres undefined) the value was inactive: 1.33%; for `CCCOc1ccc(NP(C)(=O)Oc2ccc(Cl)cc2)cc1` (centres undefined), inactive: -0.168%.
For `O=[N+]([O-])c1cc([N+](=O)[O-])c(Nc2nnnn2CCO)c([N+](=O)[O-])c1` the value was inactive: 1.12%.
For the molecule `CC1=C2N=C(C=C3N=C(C(C)=C4[N-][C@@](C)([C@@H]5N=C1[C@](C)(CCC(=O)NC[C@@H](C)OP(=O)([O-])O[C@H]1[C@@H](O)[C@@H](n6cnc7cc(C)c(C)cc76)O[C@@H]1CO)[C@H]5CC(N)=O)[C@@](C)(CC(N)=O)[C@@H]4CCC(N)=O)[C@@](C)(CC(N)=O)[C@@H]3CCC(N)=O)C(C)(C)[C@@H]2CCC(N)=O.[C-]#N.[Co+3]`, the inhibition was inactive: 1.59%.
For the molecule `CCOC(=O)C(CC)C1=NC(C)(C)Cc2ccccc21.O=[N+]([O-])c1cc([N+](=O)[O-])c(O)c([N+](=O)[O-])c1` (centres undefined), the inhibition is inactive: -2.6%.
On to `CC1=NCCc2c1[nH]c1ccccc21.O=[N+]([O-])c1cc([N+](=O)[O-])c(O)c([N+](=O)[O-])c1`, for which the inhibition was inactive: 0.0737%.
For `O=C(O)c1cccc(Nc2c([N+](=O)[O-])cc([N+](=O)[O-])cc2[N+](=O)[O-])c1` the value was inactive: -0.499%; for `CP(=O)(Nc1cccc(Br)c1)Oc1ccccc1` (centres undefined), inactive: -0.725%.
For `Cc1cc(C)cc(OP(C)(=O)Nc2ccccn2)c1` (centres undefined), the inhibition was inactive: 0.608%.
Regarding `Cc1ccc(C)c(NP(C)(=O)Oc2ccccc2)c1` (centres undefined), the inhibition was inactive: 0.335%.
`COc1ccccc1OP(C)(=O)Nc1cccc(Br)c1` (centres undefined): the inhibition is inactive: 1.17%.
As for `Cc1cc(C)cc(OP(C)(=O)Nc2ccc(C)cc2C)c1` (centres undefined), the inhibition is inactive: -0.994%.
For `CCOC(=O)c1ccc(NP(C)(=O)Oc2cc(C)cc(C)c2)cc1` (centres undefined) the value was inactive: -1.83%; for `CCN(CC)CCCOC(=O)C(O)(c1ccccc1)c1ccccc1`, inactive: 0.0604%.
For `COc1ccccc1OP(C)(=O)Nc1ccc(C)cc1` (centres undefined), the inhibition was inactive: -1.21%.
Consider `Cc1ccc(NP(C)(=O)Oc2ccccc2)c(C)c1` (centres undefined), for which the inhibition is inactive: -0.223%.
`COc1ccccc1OP(C)(=O)Nc1cc(Cl)ccc1C` (centres undefined): the inhibition was inactive: -0.501%.
For `COc1ccc(OP(C)(=O)Nc2cccc(F)c2)cc1` (centres undefined) the value was inactive: 2.4%.
`Cc1cc(C)cc(OP(C)(N)=O)c1` (centres undefined): the inhibition was inactive: -2.34%.
Consider `O=[N+]([O-])c1cc([N+](=O)[O-])c(Nc2cccnc2)c([N+](=O)[O-])c1`, for which the inhibition is inactive: 1.23%.
`CC(C)(C)c1ccc(OP(C)(=O)Nc2ccc(SC(F)(F)F)cc2)cc1` (centres undefined): the inhibition was inactive: -4.52%.
`Cc1cccc(C)c1OP(C)(N)=O` (centres undefined): the inhibition is inactive: 1.15%.
`O=[N+]([O-])c1ccc2c(c1)C=Nc1ccccc1O2`: the inhibition is inactive: 0.125%.
As to `CP(=S)(Nn1cnnc1)Oc1ccccc1` (centres undefined), the inhibition was inactive: 0.569%.
For `COc1ccccc1OP(C)(=O)Nc1ccccc1` (centres undefined) the value was inactive: 0.271%; for `CP(=O)(Nc1ccccc1Br)Oc1ccccc1` (centres undefined), inactive: 0.481%; for `CCOP(C)(=S)SCC(=O)NC(C)C(=O)O` (centres undefined), inactive: -0.387%.
For `CCOC(=O)c1ccc(NP(C)(=O)Oc2ccc(OC)cc2)cc1` (centres undefined) the value was inactive: 0.647%.
In the case of `CP(=O)(Nc1ccccn1)Oc1ccc(Cl)cc1` (centres undefined), the inhibition was inactive: -0.519%.
For the molecule `Cc1cccc(C)c1OP(C)(=O)Nc1ccc(SC(F)(F)F)cc1` (centres undefined), the inhibition was inactive: 0.932%.
In the case of `CP(=O)(Oc1ccccc1)OC(c1ccccc1)C(F)(F)F` (centres undefined), the inhibition is inactive: 1.19%.
For `CCc1ccc(OP(C)(=O)N2CCN(c3ccc([N+](=O)[O-])cc3)CC2)cc1` (centres undefined) the value was inactive: -2.92%; for `CP(=O)(NC(=O)Nc1ccccc1)Oc1ccccc1` (centres undefined), inactive: 7.25%; for `Cc1cc(C)cc(OP(C)(=O)Nc2ccc(SC(F)(F)F)cc2)c1` (centres undefined), inactive: 0.399%.
For `CP(=O)(Nc1ccc(Cl)cc1)Oc1ccc(F)cc1` (centres undefined) the value was inactive: 1.68%; for `CC(C)(C)c1ccc(OP(C)(=O)O)cc1`, inactive: -2.23%; for `COc1ccccc1OP(C)(=O)Nc1ccccc1Br` (centres undefined), inactive: -1.75%.
Regarding `CN(C)C(=O)c1c([N+](=O)[O-])cc([N+](=O)[O-])cc1[N+](=O)[O-]`, the inhibition is inactive: -0.251%.
For `CCN(CC)CC(O)COC(=O)C(O)(c1ccccc1)C1CCCCC1` (centres undefined) the value was inactive: 1.98%.
For `COc1ccc(OP(C)(=O)Nc2ccc(Br)cc2)cc1` (centres undefined) the value was inactive: -5.38%; for `CP(=O)(Oc1ccccc1)N1CCOC1=O` (centres undefined), inactive: 1.38%; for `CCc1ccc(OP(C)(=O)Nc2cccnc2)cc1` (centres undefined), inactive: 0.748%.
Take `COc1ccccc1OP(C)(=O)Nc1c(C)n(C)n(-c2ccccc2)c1=O` (centres undefined): the inhibition was inactive: -0.363%.
Turning to `O=C(OCCCN1CCCC1)C(O)(c1ccccc1)C1CCCCC1` (centres undefined), the inhibition is inactive: -1.25%.
In the case of `CP(=O)(OC12CC3CC(CC(C3)C1)C2)OC12CC3CC(CC(C3)C1)C2`, the inhibition was inactive: 0.785%.
For `CCOC(=O)c1ccc(NP(C)(=O)Oc2ccc(Cl)cc2)cc1` (centres undefined) the value was inactive: -0.127%.
For `CP(=O)(OCCOc1ccccc1)OCCOc1ccccc1` the value was inactive: 2.17%; for `CCCCCCCCCCCCCCCC1C[N+](C)(C)CCOP(C)(=O)O1` (centres undefined), inactive: 0.669%.
For the molecule `CP(=O)(Nc1ccc(Cl)cc1Cl)Oc1ccccc1` (centres undefined), the inhibition was inactive: -0.325%.
For the molecule `O=C1C(O)=C([N+](=O)[O-])C(=O)C(O)=C1[N+](=O)[O-]`, the inhibition is inactive: -0.986%.
As for `Cc1cc(C)cc(OP(C)(=O)Nc2cccc(C(F)(F)F)c2)c1` (centres undefined), the inhibition was inactive: -0.481%.
With `COc1ccc(OP(C)(=O)Nc2ccccc2Br)cc1` (centres undefined), the inhibition was inactive: 2.53%.
For `COc1ccccc1OP(C)(=O)Nc1ccc(C)c(C)c1` (centres undefined) the value was inactive: 2.23%; for `O=[N+]([O-])c1cc([N+](=O)[O-])c(Nc2ccccn2)c([N+](=O)[O-])c1`, inactive: -0.209%.
For `Cc1c(NP(C)(=O)Oc2ccc(C(C)C)cc2)c(=O)n(-c2ccccc2)n1C` (centres undefined) the value was inactive: 0.678%; for `CCc1ccc(OP(C)(=O)O)cc1`, inactive: -0.765%.
Turning to `CP(=O)(Nc1ccccn1)Oc1ccccc1` (centres undefined), the inhibition is inactive: -0.93%.
`COc1ccccc1OP(C)(=O)Nc1ccc(C)cc1C` (centres undefined): the inhibition is inactive: 0.572%.
For `COc1ccccc1OP(C)(=O)Nc1ccc(Br)cc1` (centres undefined) the value was inactive: -0.923%; for `CN(C)CCOC(=O)C(O)(c1ccccc1)C1CCCC1` (centres undefined), inactive: -1.02%.
Turning to `COc1ccc(OP(C)(=O)Nc2ccccn2)cc1` (centres undefined), the inhibition was inactive: 2.44%.
For `O=C(OCCN1CCN(CCOCc2ccccc2)CC1)C(O)(c1ccccc1)c1ccccc1` the value was inactive: 0.31%; for `O=C(OC1CN2CCC1CC2)c1ccc([N+](=O)[O-])cc1` (centres undefined), inactive: -1.04%.
For `COc1ccc2c(c1O)-c1c(O)c(OC)cc3c1[C@H](C2)[N+](C)(C)CC3.O=[N+]([O-])c1cc([N+](=O)[O-])c([O-])c([N+](=O)[O-])c1[O-]` the value was inactive: -0.196%; for `CC(C)c1ccc(OP(C)(=O)Nc2ccc(SC(F)(F)F)cc2)cc1` (centres undefined), inactive: -0.519%.
`CP(=O)(Nc1ccccc1F)Oc1ccccc1` (centres undefined): the inhibition is inactive: 0.328%.
For `CCN(CC)CCCOC(=O)C(O)(c1ccccc1)C1CCCCC1` (centres undefined) the value was inactive: 0.431%.
For `Cc1c([N+](=O)[O-])cc([N+](=O)[O-])c(Br)c1[N+](=O)[O-]` the value was inactive: -7.78%.
For `CCCCCOc1ccc(NP(C)(=O)Oc2ccc(Cl)cc2Cl)cc1` (centres undefined) the value was inactive: 0.526%.
Turning to `O=[N+]([O-])c1cc([N+](=O)[O-])c(OC2CCCCC2O)c([N+](=O)[O-])c1` (centres undefined), the inhibition was inactive: -5.13%.
For `CP(=O)(Nc1ccccc1)Oc1ccc(F)cc1` (centres undefined) the value was inactive: -1.17%; for `COc1ccc(OP(C)(=O)Nc2ccc(SC(F)(F)F)cc2)cc1` (centres undefined), inactive: -2.49%; for `CCOC(=O)c1ccc(NP(C)(=O)Oc2ccc(F)cc2)cc1` (centres undefined), inactive: 0.627%.
For the molecule `Cc1cc(-c2cccc3ccccc23)c(C)cn1.O=[N+]([O-])c1cc([N+](=O)[O-])c(O)c([N+](=O)[O-])c1`, the inhibition was inactive: -0.164%.
For `O=[N+]([O-])c1cc([N+](=O)[O-])c(NCC2CCS(=O)(=O)C2)c([N+](=O)[O-])c1` (centres undefined), the inhibition is inactive: -0.987%.
For `O=[N+]([O-])c1ccc(OP2(=O)COCCO2)cc1` (centres undefined) the value was inactive: 0.145%; for `Cc1c(C(c2ccc3c(c2)OCO3)c2c(C)n(C)n(-c3ccccc3)c2=O)c(=O)n(-c2ccccc2)n1C.O=[N+]([O-])c1cc([N+](=O)[O-])c(O)c([N+](=O)[O-])c1`, inactive: -7.19%.
Regarding `COc1ccc(OP(C)(=O)Nc2cccc(Br)c2)cc1` (centres undefined), the inhibition is inactive: -0.769%.
For `COc1ccc(NP(C)(=O)Oc2ccccc2OC)cc1` (centres undefined) the value was inactive: -0.582%.
For `CN(C)CCOC(=O)C(O)(c1ccccc1)C1CCCCC1` (centres undefined) the value was inactive: 0.00694%; for `CP(=O)(Nc1ccc2c(c1)OCCO2)Oc1ccccc1` (centres undefined), inactive: 0.106%.
On to `Cc1ccccc1NP(C)(=O)Nc1ccccc1C`, for which the inhibition is inactive: 1.14%.
For `CP(=O)(Nc1ccc(SC(F)(F)F)cc1)Oc1ccc(F)cc1` (centres undefined) the value was inactive: 1.15%.
For `CCOP(C)(=S)SCC(=O)NC(C)(CC)C(=O)O` (centres undefined) the value was inactive: 0.847%.

Source of the values: PubChem BioAssay AID488839 (Broad Institute, 2010).
